Laboratory results from patent publication US20070248680A1, “Particles for Inactivating Toxins” (Board of Regents, The University of Texas System, priority 2005, published 2007).

Assay: Persistence of FITC-BSA tagged particles in blood after intravenous introduction (fluorometry)
Format: in vivo
Conditions: Balb/C mice
Protocol: One feature of the present invention is that a particle preparation of the present invention is capable of remaining in the host for a length of time, longer than proteins, antibodies, vaccines, or antimicrobials are known to last in a mammalian host. […] Particle were tagged by conjugating with FITC-labeled bovine serum albumin (BSA) protein. BSA-tagged particles or BSA alone were introduced intravenously into two groups of Balb/C mice (at approximately 100 micrograms of BSA per 1 mg of particles; each group having at least 5 mice) which was followed by the collection of blood samples from each mouse at specific time points using retro-orbital blood collection methods. The amount of BSA present in each sample was assessed by fluorometry. The tagged particles in FIG. 5A were FITC-BSA conjugated to NIPA particles of about 5.0 micrometers (typical diameter). […] In addition, greater than 20% of the BSA-NIPA particles were still present in the blood after two weeks.
In FIG. 5B, particles were HPC (approximately 5.0 micrometers, typical diameter) conjugated to BSA which were introduced intravenously into Balb/C mice and compared with mice injected with FITC-labeled BSA.

## bovine serum albumin [BSA, reference compound]
FITC label, FIG. 5A
  time present in the blood: less than two
Day 2, FIG. 5B
  presence of labeled BSA in the host by day 2: virtual absence
